Measurements taken from patent publication US6645738B1, “DNA molecules encoding the melanocortin 5 receptor protein from rhesus monkey” (Merck & Co., Inc., priority 1998, dated 2003).
Like-named read-outs stand apart in the source and are kept apart here.

Sequences of proteins named here, by UniProt entry; tags and fusion partners are left off. A change or cut given only in a name is not applied to a line headed by its entry.
UniProt P33032: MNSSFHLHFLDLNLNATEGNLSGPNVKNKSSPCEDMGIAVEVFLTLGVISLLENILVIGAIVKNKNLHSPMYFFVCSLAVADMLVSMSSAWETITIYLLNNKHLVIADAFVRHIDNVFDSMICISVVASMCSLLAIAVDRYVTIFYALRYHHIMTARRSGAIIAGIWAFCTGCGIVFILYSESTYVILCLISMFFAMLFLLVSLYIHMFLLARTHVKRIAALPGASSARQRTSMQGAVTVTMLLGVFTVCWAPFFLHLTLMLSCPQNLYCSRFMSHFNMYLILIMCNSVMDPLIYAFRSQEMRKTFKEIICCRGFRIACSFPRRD
UniProt P01189: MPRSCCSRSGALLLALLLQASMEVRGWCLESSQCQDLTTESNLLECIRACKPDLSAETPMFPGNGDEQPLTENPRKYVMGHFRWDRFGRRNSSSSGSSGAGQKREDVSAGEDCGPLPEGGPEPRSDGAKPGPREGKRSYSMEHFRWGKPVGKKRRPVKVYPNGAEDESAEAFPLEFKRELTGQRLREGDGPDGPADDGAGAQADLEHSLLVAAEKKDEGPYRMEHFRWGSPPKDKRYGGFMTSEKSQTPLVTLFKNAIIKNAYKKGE

Tests used:
[1] = molecular target: T1, human MC-5R (Homo sapiens, UniProt P33032); format: cell-based; details: read-out: EC50, nM hMC-5R
T1 construct: expressed in transfected cells
Method: To determine the functional activation of receptors, stably transfected CHO cells were washed once with PBS without Ca^++/Mg^++, dissociated by non-enzymatic dissociation medium (Specialty Media, Inc.) at 37° C. for 10 min. Dissociated cells were resuspended in EBSS buffer containing 25 mM Hepes, 5 mM MgCl2, 0.1% BSA and 50 mM IBMX and incubated with agonist at room temperature for 45 min. The agonist activation was terminated by boiling for 4 min.
(§1) Single clones were used in all pharmacological studies as described above.
(§2) A cDNA encoding human MC-5R subcloned into the pIRES1neo expression vector (Clontech) and stably transfected into CHO cells was used as a reference for the pharmacological properties of the rhesus MC-5R. Single clones were used in all pharmacological studies as described above. The functional properties of rhMC-5R were determined by heterologous expression in CHO cells.

[2] = molecular target: T1, human MC-5R; format: binding; details: read-out: IC50, nM hMC-5R
Method: (§3) The receptor plasmid was transfected into CHO dhfr- cells using lipofectamin (GIBCO). Transfected cells were selected by G418 for at least 2-3 weeks before binding and functional assays were performed. […] After incubation at room temperature for 3 hours, wells were washed 3 times by PBS, lysed in 0.5 ml of 0.05% SDS and counted by a gamma counter.
as §1, §2

[3] = molecular target: T2, human melanocortin 5 receptor (human, UniProt P33032 1-325); test: displacement of 0.1 nM 125I-NDP-α-MSH from CHO cells stably expressing hMC-5R
Method: as §3, with “dhfr-cells” for “dhfr- cells”, “2–3” for “2-3”
as §2

[4] = molecular target: T2, human melanocortin 5 receptor; test: cell-based or functional assay

IC50 [3] [nM] | Molecule | EC50 [1] [nM] | IC50 [2] [nM] | other results
– | NDP-α-MSH | 0.3 ± 0.1 | 0.5 ± 0.1 | –
– | MT-II [MTII] | 0.8 ± 0.2 | 18 ± 3 | –
– | human ACTH(1-24) [ACTH1-24] | – | 1050 ± 500 | EC50 ([1]; intracellular cAMP, CHO cells, agonist 45 min at room temperature): 5 ± 1 nM
– | α-MSH | 12 | 1800 ± 200 | –
18 | MT-II (peptide) | – | – | –
1050 | SYSMEHFRWGKPVGKKRRPVKVYP (peptide, UniProt P01189 138-161, looked up, range 138-161) [human ACTH(1-24)] | – | – | –
1800 | SYSMEHFRWGKPV (peptide, UniProt P01189 138-150, looked up, also called α-MSH) [α-melanocyte stimulating hormone] | – | – | EC50, nM (cAMP synthesis in CHO cells) [4]: 12 nM
